Target: μ-opioid receptor (MOR) (Homo sapiens, UniProt P35372)
Test: [35S]GTPγS binding assay, MOR agonist activity
Type: biochemical
Settings: mean ± sem
Description: Protein concentration was detected using BCA protein concentration assay kit: 10 μl of protein standard was prepared into a final concentration of 0.5 mg/ml. 0, 1, 2, 4, 8, 12, 16, or 20 μl of BSA standard protein was taken and added together with the sample to be tested to a 96-well plate, and supplemented to 20 μl with the solution for diluting the standard. 200 μl of BCA working solution was added to each well and placed at 37° C. for 30 min. The absorbance at A562 wavelength was measured with a microplate reader. The protein concentration was calculated based on the standard curve.
The prepared membrane receptor was diluted to the required concentration with the reaction buffer (R.B), and the samples were added as shown in Table 2 (unit: μl).
The reaction tube was incubated in a 27° C. water bath for 1 hour, and the mixture was filtered through a glass fiber membrane under reduced pressure and liquid scintillation counting was performed. The following equation was used to perform calculation:
[^35S] GTPγS binding rate=100×(cpmsample−cpmnon-specific)/(cpmbasal−cpmnon-specific)

Amino acid sequences for entries named in this document (tags omitted).
UniProt P35372, whole entry: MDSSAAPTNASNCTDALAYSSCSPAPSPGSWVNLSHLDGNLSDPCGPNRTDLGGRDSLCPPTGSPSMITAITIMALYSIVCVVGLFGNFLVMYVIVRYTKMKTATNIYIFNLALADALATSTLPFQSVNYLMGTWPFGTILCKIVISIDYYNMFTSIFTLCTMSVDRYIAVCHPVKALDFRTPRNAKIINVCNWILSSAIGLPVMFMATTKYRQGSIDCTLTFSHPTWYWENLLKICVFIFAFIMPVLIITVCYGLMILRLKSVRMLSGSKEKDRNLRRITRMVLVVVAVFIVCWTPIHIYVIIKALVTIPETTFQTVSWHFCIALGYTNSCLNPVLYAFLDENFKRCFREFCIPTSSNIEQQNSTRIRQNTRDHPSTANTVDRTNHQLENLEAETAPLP

SMILES: C[C@@H](NC(=O)[C@@H](N)Cc1ccc(O)cc1)C(=O)N[C@@H](Cc1ccccc1)C(=O)NCC(=O)N[C@@H](Cc1ccc(O)cc1)C(=O)N1CCC[C@H]1C(=O)N[C@@H](CO)C(N)=O [derorphin, reference compound]
- EC50: 61.3 ± 10.6 nM

From patent US20220177515A1, “METHOD FOR MODIFYING AMINO GROUP IN MOLECULE WITH THE ZOLINIUM AND USE THEREOF” (priority 2019, published 2022)
